Changes are numbered by the printed parent chain.
T1: cyno TREM-1-His protein (cynomolgus monkey, UniProt A0A2K5VHG8 21-204)
T1 construct: extracellular domain; Soluble analyte of the Octet assay; not shown: His tag
T1 sequence: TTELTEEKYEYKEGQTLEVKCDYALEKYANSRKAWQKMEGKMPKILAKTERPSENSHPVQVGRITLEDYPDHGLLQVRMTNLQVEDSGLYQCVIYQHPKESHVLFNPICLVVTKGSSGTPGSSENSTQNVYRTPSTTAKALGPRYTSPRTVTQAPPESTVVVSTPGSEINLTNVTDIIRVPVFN

Chains of the proteins cited; added tags and fusions are not shown. Residues count along the entry.
UniProt Q9NP99, 21-205: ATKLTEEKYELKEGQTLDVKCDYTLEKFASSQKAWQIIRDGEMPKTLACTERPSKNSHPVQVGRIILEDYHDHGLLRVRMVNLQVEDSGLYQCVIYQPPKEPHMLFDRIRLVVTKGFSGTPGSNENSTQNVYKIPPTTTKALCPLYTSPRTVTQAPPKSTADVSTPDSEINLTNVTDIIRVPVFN
UniProt Q9NP99, 21-234 limits assumed: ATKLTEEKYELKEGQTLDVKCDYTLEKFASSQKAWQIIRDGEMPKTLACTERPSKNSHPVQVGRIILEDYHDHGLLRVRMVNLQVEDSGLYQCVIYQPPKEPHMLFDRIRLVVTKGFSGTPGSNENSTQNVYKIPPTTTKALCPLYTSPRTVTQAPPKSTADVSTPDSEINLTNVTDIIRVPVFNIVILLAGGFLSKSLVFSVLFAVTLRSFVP

T2: cyno TREM-1 (cynomolgus monkey, UniProt A0A2K5VHG8 21-233)
T2 sequence: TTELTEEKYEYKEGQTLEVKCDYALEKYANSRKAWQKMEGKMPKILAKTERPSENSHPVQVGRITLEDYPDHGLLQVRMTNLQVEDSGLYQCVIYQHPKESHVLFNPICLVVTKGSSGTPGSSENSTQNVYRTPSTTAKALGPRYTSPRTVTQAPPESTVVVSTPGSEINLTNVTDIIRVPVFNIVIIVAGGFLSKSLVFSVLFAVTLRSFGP

B1: 34D1 (antibody, V domains shown)
VH: QVQLVQSGAEVKKPGASVKVSCKASGYTFTRYDINWVRQATGQGLEWMGWMNPNSGNSGSVQKFRGRVTMTRNTSIHIAYMELSSLRSEDTAVYYCARGGYTSSWRWYFDLWGRGTLVTVSS
VL: DIQMTQSPSSLSASVGDRVNITCQASQDIRKHLNWYQQKPGKAPNLLIYDAANLETGVPSRFSGSGSGTAFTFTISSLQPEDIATYYCQHYANLPITFGQGTRLEIK
B2: 61B12 (antibody, V domains shown)
VH: QVQLVQSGAEVTKPGASVKVSCKASGYTFTRYDINWVRQATGQGLEWMGWMNPNSGNSGSVQKFRGRVTMTRNTSITTVYMELSSLRSDDTAVYYCARGGISSSWHWAFDIWGQGTMVTVSS
VL: DIQMTQSPSSLSASVGDRVTITCQASQDINNHLNWYQQKPGKAPKLLIYGAYTLETGVPSRFSGSGSGTDFTFTISSLQPEDIATYYCQQYDKLPLTFGGGTKVEIK
B3: 61G5 (antibody, V domains shown)
VH: QVQLVQSGAEVKKPGASVKVSCKASGYTFTSYDINWVRQATGQGLEWMGWMNPNSGNSGSVKKFRDRVTMTRNTSISTAYMELSSLRSEDTAVYYCVRLIGYSSAWKWSFQHWGQGTLVTVSS
VL: B1 VL with N20T, Q27R, R30S, H32Y, N45K, L47Q, A52S, A70D, A92D, L94I
B4: 63F8 (antibody, V domains shown)
VH: QVQLVQSGAEVKKPGASVKVSCKASGYTFTSYDINWVRQATGQGLEWMGRMNPKSGNAGYVQNFRGRVTMTRNTSISTAYMELSSLRSEDTAVYYCARGGRTSIWSFVFDYWGQGTLVTVSS
VL: B2 VL with N30S, N31K, G50D, A51T, Y52S, T53N, Y87N

Target: T3, recombinant soluble human TREM-1-His protein (human, UniProt Q9NP99 21-205, biotinylated in the bead assays of Tables 6 and 7 (sites not given))
T3 construct: also called b-huTREM-1-His; biotinylated human TREM-1-His antigen; not shown: His tag
Experiment: limiting antigen assay, biotinylated huTREM-1-His at 7.5 ng/ml on LumAvidin beads, antibody 5 ug/mL, flow cytometry

Binder | FACS Geomean
B1 | 80400
B2 | 26900
B3 | 24800
B4 | 25800

Target: T4, human TREM-1 (human, UniProt Q9NP99 21-234)
Experiment: cell-based or functional assay

Binder | Ab IC50-Human PBMC (Trial 1), TNFα release induced by PGLYRP1/PGN | Ab IC50-Human PBMC (Trial 2), TNFα release induced by PGLYRP1/PGN
B1 | 10 pM | 6.9 pM
B2 | 8 pM | 
B3 | 10.2 pM | 2.7 pM
B4 | 3.8 pM | 3.1 pM

Target: T4, human TREM-1
Experiment: flow cytometry competition, competitor PGLYRP1-His/PGN on HEK293 cells with human TREM1/DAP12, antibody 2.5 ug/mL

Binder | Receptor-ligand % inhibition
B1 | 101%
B2 | 87%
B3 | 91%
B4 | 93%

Target: T3, recombinant soluble human TREM-1-His …
Experiment: BLI (Octet HTX), antibody captured on anti-human Fc sensor, soluble human TREM-1-His as analyte, 1:1 model
Description: (§1) Briefly, TREM-1 hybridoma supernatants normalized to 10 μg/mL in DMEM null media were prepared by diluting 1:10 in OCTET® assay buffer (10 mM Tris, 0.1% Triton X-100, 150 mM NaCl, 1 mM CaCl₂), 0.1 mg/mL BSA, at pH 7.6) to a final test concentration of 1 μg/mL. Amine reactive second-generation AR2G Biosensors (Molecular Devices) were pre-incubated in 200 μL nanopore water for a minimum of 10 minutes at room temperature before use. The AR2G Biosensors were then activated for 5 minutes in a solution of 20 mM EDC (1-Ethyl-3-[3-dimethylaminopropyl]carbodiimide hydrochloride) (ForteBio) pre-mixed with 10 mM NHS (N-hydroxysulfosuccinimide) (ForteBio) in nanopore water. An in-house generated mouse anti-human Fc monoclonal antibody was coupled to the AR2G Biosensors at 10 μg/mL in 10 mM sodium acetate buffer at pH 5 for 5 minutes, quenched with 1M ethanolamine at pH 8.5 for 5 minutes, and then used to capture antibody from solution. The TREM-1 test antibodies were loaded onto the Biosensors for 5 minutes, and baseline measurements were taken for 1 minute. […] The association of recombinant human TREM-1 with the antibody-loaded sensor was measured for 5 minutes, followed by dissociation in OCTET® buffer for 10 minutes. Biosensors were then regenerated with 10 mM glycine at pH 1.7, reloaded with the same TREM-1 antibodies on the same sensors for 5 minutes, and the same method was used to measure association and dissociation of cyno TREM-1-His protein. Data was referenced using a 0 nM analyte reference sensor. Kinetic analysis was performed using a 1:1 Langmuir model with mass transfer in Genedata Screener software.

Binder | Kd | koff | kon
B1 | 881 pM | 0.000205 s⁻¹ | 233000 M⁻¹ s⁻¹
B2 | < 557 pM | < 0.000176 s⁻¹ | 316000 M⁻¹ s⁻¹
B3 | < 285 pM | < 0.000176 s⁻¹ | 618000 M⁻¹ s⁻¹
B4 | < 220 pM | < 0.000176 s⁻¹ | 799000 M⁻¹ s⁻¹

Target: T1, cyno TREM-1-His protein
Experiment: BLI (Octet HTX), antibody captured on anti-human Fc sensor, cyno TREM-1-His as analyte, 1:1 model
Description: as §1

Binder | koff | kon
B1 | 0.00128 s⁻¹ | 258000 M⁻¹ s⁻¹
B2 | 0.000495 s⁻¹ | 391000 M⁻¹ s⁻¹
B3 | 0.000476 s⁻¹ | 364000 M⁻¹ s⁻¹
B4 | 0.000644 s⁻¹ | 752000 M⁻¹ s⁻¹

Target: T2, cyno TREM-1
Experiment: cell-based or functional assay

Binder | Ab IC50-Cyno PBMC (Trial 1), TNFα release induced by cyno PGLYRP1/PGN | Ab IC50-Cyno PBMC (Trial 2), TNFα release induced by cyno PGLYRP1/PGN
B1 | 100 pM | 16.2 pM

Target: T4, human TREM-1
Experiment: flow cytometry on HEK293 cells transfected with human TREM-1 and DAP12, supernatant 2.5 ug/mL, geomean fold over irrelevant control antibody

Binder | GM Fold
B1 | 246 fold
B2 | 1850 fold
B3 | 2070 fold
B4 | 1380 fold

Target: T2, cyno TREM-1
Experiment: flow cytometry on HEK293 cells transfected with cyno TREM-1 and DAP12, supernatant 2.5 ug/mL, geomean fold over irrelevant control antibody

Binder | GM Fold
B1 | 228 fold
B2 | 2090 fold
B3 | 2160 fold
B4 | 2370 fold

Source: patent US20260274913A1 (Amgen, published 2026)
